Assay results published in BindingDB's records for US10183938.

By UniProt entry, the sequences of proteins in these tests, tags left out. Residues count along the entry.
UniProt P36544, 23-502 limits assumed: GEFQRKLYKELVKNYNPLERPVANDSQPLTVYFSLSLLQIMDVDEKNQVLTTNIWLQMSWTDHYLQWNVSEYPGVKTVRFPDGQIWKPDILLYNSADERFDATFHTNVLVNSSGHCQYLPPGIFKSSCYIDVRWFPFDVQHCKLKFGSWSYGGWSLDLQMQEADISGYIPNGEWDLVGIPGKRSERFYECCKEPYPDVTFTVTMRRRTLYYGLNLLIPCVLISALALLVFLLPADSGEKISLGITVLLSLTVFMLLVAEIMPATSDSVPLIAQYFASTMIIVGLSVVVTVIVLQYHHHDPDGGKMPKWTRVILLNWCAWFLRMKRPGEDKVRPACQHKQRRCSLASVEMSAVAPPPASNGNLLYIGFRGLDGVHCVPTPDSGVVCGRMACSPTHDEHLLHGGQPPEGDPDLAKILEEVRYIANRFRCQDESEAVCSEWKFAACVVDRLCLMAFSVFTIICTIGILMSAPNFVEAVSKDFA

Target: Neuronal acetylcholine receptor subunit alpha-7 (Homo sapiens, UniProt P36544)
Test: Human alpha7 nAChR Binding Assay

SMILES	Ki
O=C(N[C@@H]1C2CCN(CC2)C12CC2)c1n[nH]c2ccccc12	350 nM
COc1ccc2sc(C(=O)N[C@@H]3C4CCN(CC4)C3(C)C)cc2c1	6700 nM
Cc1csc2cc(C(=O)N[C@@H]3C4CCN(CC4)C34CC4)ccc12	6300 nM
COCc1ccc2cc(C(=O)N[C@@H]3C4CCN(CC4)C3(C)C)sc2c1	4400 nM
CC1(C)[C@H](NC(=O)c2ccc3oc(Cl)cc3c2)C2CCN1CC2	590 nM
COc1ccc2cc(C(=O)N[C@@H]3C4CCN(CC4)C34CC4)sc2c1C(F)(F)F	7600 nM
CC(C)(C)c1cccc2cc(C(=O)N[C@@H]3C4CCN(CC4)C3(C)C)sc12	630 nM
O=C(N[C@@H]1C2CCN(CC2)C12CC2)c1ccc2oc(C3CC3)cc2c1	620 nM
CC1(C)[C@H](NC(=O)c2cc3cccc(C4(C(F)(F)F)CC4)c3s2)C2CCN1CC2	2900 nM
Cc1ccc2cc(C(=O)N[C@@H]3C4CCN(CC4)C34CC4)sc2c1C(F)(F)F	670 nM
CC1(C)[C@@H](NC(=O)c2cc3cccc(F)c3s2)C2CCN1CC2	6700 nM
O=C(N[C@@H]1C2CCN(CC2)C12CC2)c1cc2ccc3c(c2s1)CCCO3	100 nM
Cc1csc2ccc(C(=O)N[C@@H]3C4CCN(CC4)C34CC4)cc12	760 nM
O=C(N[C@@H]1C2CCN(CC2)C12CC2)c1cc2cccc(OC(F)(F)F)c2s1	520 nM
CC1(C)[C@H](NC(=O)c2cc3cccc(CC(F)(F)F)c3s2)C2CCN1CC2	505 nM
O=C(N[C@@H]1C2CCN(CC2)C12CC2)c1cc2cccc(C3CC3)c2s1	36 nM
O=C(N[C@@H]1C2CCN(CC2)C12CC2)c1cc2cccc(Cl)c2o1	730 nM
CC1(C)[C@H](NC(=O)c2ccc3ccsc3c2)C2CCN1CC2	620 nM
O=C(N[C@@H]1C2CCN(CC2)C12CC2)c1cc2ccc(OC(F)(F)F)cc2s1	8200 nM
Cc1nc2cc(C(=O)N[C@@H]3C4CCN(CC4)C34CC4)ccc2s1	770 nM
CC1(C)[C@H](NC(=O)c2cc3ccc(F)c(F)c3s2)C2CCN1CC2	1000 nM
O=C(N[C@@H]1C2CCN(CC2)C12CC2)c1ccc2cc(Cl)sc2c1	290 nM
